# In publication PMC3408453, “A Foldamer-Dendrimer Conjugate Neutralizes Synaptotoxic β-Amyloid Oligomers” (PLoS ONE, 2012):
# Tests used:
# oligomeric Aβ = biological target: T1, oligomeric Aβ (Homo sapiens, UniProt P05067); assay: Capture ELISA, biotinyl ligands on streptavidin plate, oligomeric Aβ detected by BAM10; type: binding
# T1 construct: a depsipeptide derivative of Aβ(1–42) was utilized; made in house; host or cells: chemical peptide synthesis (no expression host)
# Experimental: Biotin-labeled 1 was prepared by elongating the foldamer segment with a biotinyl-aminohexanoyl-Gly-Gly moiety and these derivatives were coupled to G0-PAMAM which furnished biotin-labeled 7. Biotinyl-8 was also prepared. All the labeled ligands were attached to the streptavidin functionalized microplates with a coverage of 5 pmoles per well. […] Because of the potential sterical shielding of the recognition segments over the surface, the ITC affinities cannot be directly compared to the ELISA results.
# (§1) Figure 6 ELISA results. (A) Effects of multivalency on the affinities. Normalized absorbances recorded in capture ELISA experiments, where the biotinyl-7 (circles), -8 (triangles) or -1 (squares) are attached to the streptavidin functionalized plate and the increasing surface concentration of Aβ is observed through the BAM10 antibody.
# An indirect ELISA experiment was conducted on 96-well streptavidin-coated clear plates (Pierce, Cat.No. 15500, Rockford, IL, US). Biotinyl-compounds bound to streptavidin by incubating 1 µg substance per well for 2 h at ambient temperature. Aβ(1–42) was dissolved in PBS to 100 µM and incubated for 24 h at 37°C. Serial dilutions of the incubated peptide were prepared, and supplemented with Tween (0.05% v/v of the final volume) and BSA (1% w/v of the final volume) prior to use. Compounds were incubated with Aβ oligomers for 1 h at ambient temperature. Bound Aβ was detected by monoclonal anti-Aβ AB clone Bam-10 (Sigma-Aldrich) applied in 1∶10000 dilution for 1 h followed by an incubation with anti-mouse IgG-HRP (DakoCytomation, Glostrup Denmark). Finally, 100 µL tetramethylbenzidine (TMB) solution (Cell Signaling Tecnology Inc., Danvers, USA) was introduced into the wells, and the change in the absorbance at 370 nm was monitored constantly, without the addition of stop solution, on a 96-well plate reader (NOVOstar OPTIMA, BMG Labtech, Offenburg, Germany) equipped with a xenon lamp, fiberglass optics and a shaking microplate carrier. Abs370 values were read near complete saturation of the signal intensity, which was observed after 40 min. For the quantitative analysis of the results, nonlinear regressions were carried out and the IC50 values were optimized with fixed number of blocked ligands per Aβ peptide as determined by ITC [80]. […] Concerning the steric shielding exerted by the solid support, the apparent binding parameters estimated from ELISA are in good accordance.
# fibrillar Aβ = biological target: T2, fibrillar Aβ (Homo sapiens, UniProt P05067); assay: Capture ELISA, biotinyl ligand on streptavidin plate, fibrillar Aβ; type: binding
# T2 construct: Aβ(1–42) was dissolved in PBS to 100 µM and incubated for 24 h at 37°C; made in house; host or cells: chemical peptide synthesis (no expression host)
# Experimental: as §1
# This phenomenon was tested also in a capture ELISA. Biotin-labeled 4 and 5 were prepared as described and ligation to G0-PAMAM yielded biotin-labeled 9 and 10, respectively. ELISA measurements confirmed the ITC findings (Figure 6B). […]
# An indirect ELISA experiment was conducted on 96-well streptavidin-coated clear plates (Pierce, Cat.No. 15500, Rockford, IL, US). […] Bound Aβ was detected by monoclonal anti-Aβ AB clone Bam-10 (Sigma-Aldrich) applied in 1∶10000 dilution for 1 h followed by an incubation with anti-mouse IgG-HRP (DakoCytomation, Glostrup Denmark). Finally, 100 µL tetramethylbenzidine (TMB) solution (Cell Signaling Tecnology Inc., Danvers, USA) was introduced into the wells, and the change in the absorbance at 370 nm was monitored constantly, without the addition of stop solution, on a 96-well plate reader (NOVOstar OPTIMA, BMG Labtech, Offenburg, Germany) equipped with a xenon lamp, fiberglass optics and a shaking microplate carrier. Abs370 values were read near complete saturation of the signal intensity, which was observed after 40 min. […]
# biotinyl-7 [1] = assay: ELISA; capture ELISA as for oligomeric Aβ, but with fibrillar Aβ on plate-bound biotinyl-7
# biotinyl-1 = assay: ELISA; capture ELISA: biotinyl ligands on streptavidin plates, serial dilutions of oligomeric Aβ in PBS with 0.05% Tween and 1% BSA, 1 h at ambient temperature, bound Aβ detected with BAM10; apparent
# biotinyl-8 = assay: as above
# biotinyl-9 = assay: as above
# biotinyl-7 [2] = assay: as above
# biotinyl-10 = assay: as above
IC50 (biotinyl-7 [1]),IC50 (biotinyl-1),IC50 (biotinyl-8),IC50 (biotinyl-9),IC50 (biotinyl-7 [2]),IC50 (biotinyl-10),Compound,IC50 (oligomeric Aβ),IC50 (fibrillar Aβ)
,,,,,,N=C(N)NCCC[C@@H](CC(=O)N[C@H]1CCCC[C@@H]1C(=O)N[C@H]1CCCC[C@@H]1C(=O)N[C@@H](CC(=O)O)CC(=O)N[C@H]1CCCC[C@@H]1C(=O)NCC(=O)NCC(=O)N[C@@H](CSC1CC(=O)N(CCC(=O)NCCNC(=O)CCN(CCC(=O)NCCNC(=O)CCN2C(=O)CC(SC[C@H](NC(=O)CNC(=O)CNC(=O)[C@H]3CCCC[C@@H]3NC(=O)C[C@H](CC(=O)O)NC(=O)[C@H]3CCCC[C@@H]3NC(=O)[C@H]3CCCC[C@@H]3NC(=O)C[C@H](CCCNC(=N)N)NC(=O)[C@H]3CCCC[C@@H]3NC(=O)CNC(=O)CNC(=O)CCCCCNC(=O)CCCC[C@@H]3SC[C@@H]4NC(=O)N[C@@H]43)C(N)=O)C2=O)CCN(CCC(=O)NCCNC(=O)CCN2C(=O)CC(SC[C@H](NC(=O)CNC(=O)CNC(=O)[C@H]3CCCC[C@@H]3NC(=O)C[C@H](CC(=O)O)NC(=O)[C@H]3CCCC[C@@H]3NC(=O)[C@H]3CCCC[C@@H]3NC(=O)C[C@H](CCCNC(=N)N)NC(=O)[C@H]3CCCC[C@@H]3NC(=O)CNC(=O)CNC(=O)CCCCCNC(=O)CCCC[C@@H]3SC[C@@H]4NC(=O)N[C@@H]43)C(N)=O)C2=O)CCC(=O)NCCNC(=O)CCN2C(=O)CC(SC[C@H](NC(=O)CNC(=O)CNC(=O)[C@H]3CCCC[C@@H]3NC(=O)C[C@H](CC(=O)O)NC(=O)[C@H]3CCCC[C@@H]3NC(=O)[C@H]3CCCC[C@@H]3NC(=O)C[C@H](CCCNC(=N)N)NC(=O)[C@H]3CCCC[C@@H]3NC(=O)CNC(=O)CNC(=O)CCCCCNC(=O)CCCC[C@@H]3SC[C@@H]4NC(=O)N[C@@H]43)C(N)=O)C2=O)C1=O)C(N)=O)NC(=O)[C@H]1CCCC[C@@H]1NC(=O)CNC(=O)CNC(=O)CCCCCNC(=O)CCCC[C@@H]1SC[C@@H]2NC(=O)N[C@@H]21 (some centres unmarked) [biotinyl-7],126 nM,886 nM
886 nM,12 µM,933 nM,4.4 µM,126 nM,18.5 µM,β-amyloid Aβ(1–42) (from UniProt P05067 672-713) (peptide),,
